## Apparent affinities of Ab-14 variants for a coronavirus HR2 peptide

The target is the same throughout: PDVDLGDISGINAS, from the HR2 region of SARS-CoV-2 spike.

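The starting antibody came from a phage panning campaign against this peptide. Variants in AAYL49 differ from the parent at up to three CDR positions; double and triple changes were sampled at random. AlphaSeq pools MATa yeast showing the antibodies with MATalpha yeast showing the peptide. The frequency of each diploid, read from paired DNA barcodes, reflects how well the two displayed proteins bind. Each replicate has its own calibration line, from reference interactions of the BCL2 family. Each pool was mated in three replicate cultures.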

Parent scFv Ab-14: VH joined to VL by a 15-residue (Gly4Ser)3 linker. Changes lie in the heavy chain CDRs alone.
VH: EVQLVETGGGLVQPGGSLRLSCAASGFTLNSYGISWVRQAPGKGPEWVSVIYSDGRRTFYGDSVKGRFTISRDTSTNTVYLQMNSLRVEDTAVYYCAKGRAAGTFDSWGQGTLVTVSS
VL: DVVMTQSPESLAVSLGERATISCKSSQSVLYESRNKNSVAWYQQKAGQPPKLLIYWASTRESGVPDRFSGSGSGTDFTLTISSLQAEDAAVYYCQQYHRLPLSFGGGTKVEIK

Substitutions are numbered in sequence along the VH above, starting at 1 (not Kabat). Numbers give log10(Kd / nM), so 0 is 1 nM and 3 is 1 µM. Smaller is tighter. An entry "n.d." has no value in the source: the pair was not observed among the diploids in that replicate. This suggests poor binding but is not conclusive. Parent in this assay: reference entry 0.65, copy in this library 4.11 (one replicate of three). Three control strains display no target. For library AAYL49, 15% of the pairings with them gave a signal, with a median of 4.06 and one signal in twenty below 2.83, so weak values seen in few replicates may be background. For each scFv, signals with the empty controls are counted beside the result, with their mean in brackets.

changes,"replicates, log10 nM",control signals
N30C+G61K+G99K,n.d. / n.d. / n.d.,1/9 (1.96)
I51R+D62W+A102L,n.d. / n.d. / n.d.,0/9
T28A+G33C+K65R,n.d. / 4.86 / 4.24,0/9
V50T+D54Q+G61M,n.d. / n.d. / n.d.,0/9
S31T+S53H+T104P,n.d. / 3.79 / 4.55,2/9 (3.83)
D54N+D62C+A102P,n.d. / n.d. / n.d.,1/9 (3.92)
T28W+V50R+S107V,n.d. / n.d. / n.d.,3/9 (4.62)
F27P+S31A+T104Y,n.d. / 4.26 / 4.78,5/9 (4.17)
V50W+D54M+K65S,n.d. / 3.50 / n.d.,1/9 (4.47)
V50R+R56P+F59R,n.d. / n.d. / n.d.,4/9 (4.10)
Y60G+G103N,n.d. / n.d. / n.d.,0/9
S31G+V50I+S63E,n.d. / n.d. / n.d.,0/9
G26V+N30C+S63F,n.d. / 3.90 / n.d.,2/9 (4.00)
G33Q+K65G,n.d. / 3.48 / 3.43,1/9 (3.00)
N30T,0.93 / 0.94 / 0.86,1/9 (4.24)
V50P+K65R+R100C,n.d. / 5.28 / n.d.,4/9 (4.02)
V50K+R57E+Y60G,3.28 / n.d. / n.d.,2/9 (4.04)
I51L+D62F+G103Y,n.d. / n.d. / n.d.,0/9
I34S+I51S+G99Y,5.09 / 3.95 / n.d.,3/9 (3.84)
V50N+S53Y+D106L,n.d. / n.d. / n.d.,1/9 (3.01)
N30M+G61H+S63R,0.97 / 1.43 / 1.09,1/9 (3.26)
I51L+S107W,n.d. / n.d. / 1.78,0/9
L29Q+R56Q+T104H,6.03 / n.d. / n.d.,1/9 (4.33)
T28G+G33D+A101W,n.d. / n.d. / n.d.,0/9
S31H+F59W+V64E,n.d. / n.d. / n.d.,0/9
Y32V+G61V+T104R,1.84 / 1.85 / 1.89,2/9 (4.40)
L29F+Y60N+R100C,n.d. / n.d. / 4.91,3/9 (3.93)
T28M+A101S+S107W,n.d. / n.d. / n.d.,0/9
D54Y+R56N+T58K,n.d. / n.d. / n.d.,2/9 (4.35)
S31W+I34L+K65G,n.d. / n.d. / n.d.,1/9 (3.91)
Y60D+G61T+A101Y,2.47 / 2.75 / 2.85,2/9 (3.92)
Y32I+S35H+S53A,1.27 / 1.34 / 1.60,0/9
T58I+Y60T+A101V,2.04 / 3.07 / 2.51,0/9
D54N+T58S+F105C,n.d. / n.d. / n.d.,1/9 (3.91)
S31P+G33E+T104R,n.d. / n.d. / n.d.,5/9 (3.54)
S31C+D62E+V64N,n.d. / n.d. / n.d.,0/9
I51D+G103C+T104E,n.d. / n.d. / n.d.,0/9
I34T+R56L+R100L,n.d. / n.d. / n.d.,1/9 (4.08)
S31T+S53L+G99L,n.d. / n.d. / n.d.,1/9 (3.44)
V50P+I51D+Y60A,n.d. / n.d. / n.d.,0/9
S31D+G55N+V64E,n.d. / n.d. / n.d.,1/9 (3.83)
I51M+G61Y+F105Q,3.27 / n.d. / n.d.,3/9 (4.51)
G55C+F59S+K65P,n.d. / n.d. / n.d.,0/9

The opening 2 entries, copied out:

changes,"replicates, log10 nM",control signals
N30C+G61K+G99K,n.d. / n.d. / n.d.,1/9 (1.96)
I51R+D62W+A102L,n.d. / n.d. / n.d.,0/9

The measurements come from Engelhart et al. 2022 (doi:10.1038/s41597-022-01779-4) through the FLAb antibody collection.